Legend:
Ps0 patients = assay: Ps0 study in JAK1 and JAK2 kinase inhibitor treatment groups: serum IL-19 and PASI; format: in vivo, human
[1] = tested on: patients with moderate-to-sever atopic dermatitis; assay: AD study in JAK1 and JAK2 kinase inhibitor treatment groups: serum IL-19 and EASI; format: in vivo, human
[2] = 2 mg orally once daily, Week 0 (baseline)
[3] = 2 mg orally once daily, week 12
[4] = 4 mg orally once daily, Week 0 (baseline)
[5] = 4 mg orally once daily, week 12
[6] = 8 mg orally once daily, week 12
[7] = 10 mg orally once daily, week 12
[8] = 2 mg orally once daily, week 16
[9] = 4 mg orally once daily, week 16

`CCS(=O)(=O)N1CC(CC#N)(n2cc(-c3ncnc4[nH]ccc34)cn2)C1` [baricitinib] was tested, and the “IL-19 serum levels (geometric mean)” value (Ps0 patients; [2]) was 182.3 pg/mL, the “IL-19 serum levels (geometric mean)” value (Ps0 patients; 2 mg orally once daily, Week 2) was 98.5 pg/mL and the “% of patients with serum IL-19 concentration ≤ 21 pg/mL” value (“% of patients” below) (Ps0 patients; [3]) was 13.8% (4/29). For the same molecule, the “% patients with serum IL-19 concentration ≤ 21 pg/mL achieving at least PASI 75” value (Ps0 patients; [3]) was 50% (2/4), the “% patients with serum IL-19 concentration ≤ 21 pg/mL not achieving at least PASI 75” value (Ps0 patients; [3]) was 50% (2/4) and the “IL-19 serum levels (geometric mean)” value (Ps0 patients; [3]) was 64.8 pg/mL. For the same molecule, the “IL-19 serum levels (geometric mean)” value (Ps0 patients; [4]) was 134.9 pg/mL, the “IL-19 serum levels (geometric mean)” value (Ps0 patients; 4 mg orally once daily, Week 2) was 70.2 pg/mL and the “% of patients” value (Ps0 patients; [5]) was 31.8% (21/66). For the same molecule, the “% patients with serum IL-19 concentration ≤ 21 pg/mL achieving at least PASI 75” value (Ps0 patients; [5]) was 47.6% (10/21), the “% patients with serum IL-19 concentration ≤ 21 pg/mL not achieving at least PASI 75” value (Ps0 patients; [5]) was 52.4% (11/21) and the “IL-19 serum levels (geometric mean)” value (Ps0 patients; [5]) was 60.1 pg/mL. For the same molecule, the “IL-19 serum levels (geometric mean)” value (Ps0 patients; 8 mg orally once daily, Week 0 (baseline)) was 177.3 pg/mL, the “IL-19 serum levels (geometric mean)” value (Ps0 patients; 8 mg orally once daily, Week 2) was 67.0 pg/mL and the “% of patients” value (Ps0 patients; [6]) was 38.9% (21/54). For the same molecule, the “% patients with serum IL-19 concentration ≤ 21 pg/mL achieving at least PASI 75” value (Ps0 patients; [6]) was 85.7% (18/21), the “% patients with serum IL-19 concentration ≤ 21 pg/mL not achieving at least PASI 75” value (Ps0 patients; [6]) was 14.3% (3/21) and the “IL-19 serum levels (geometric mean)” value (Ps0 patients; [6]) was 47.5 pg/mL. The “IL-19 serum levels (geometric mean)” value (Ps0 patients; 10 mg orally once daily, Week 0 (baseline)) was 110.1 pg/mL, the “IL-19 serum levels (geometric mean)” value (Ps0 patients; 10 mg orally once daily, Week 2) was 39.7 pg/mL and the “% of patients” value (Ps0 patients; [7]) was 46.6% (27/58). For the same molecule, the “% patients with serum IL-19 concentration ≤ 21 pg/mL achieving at least PASI 75” value (Ps0 patients; [7]) was 77.8% (21/27), the “% patients with serum IL-19 concentration ≤ 21 pg/mL not achieving at least PASI 75” value (Ps0 patients; [7]) was 22.2% (6/27) and the “IL-19 serum levels (geometric mean)” value (Ps0 patients; [7]) was 25.7 pg/mL. For the same molecule, the “IL-19 (geometric mean) serum levels” value [1, 2] was 27.8 pg/mL, the “IL-19 (geometric mean) serum levels” value ([1]; 2 mg orally once daily, Week 4) was 18.8 pg/mL and the “% of patients” value [1, 8] was 51.9% (14/27). For the same molecule, the “% patients with serum IL-19 concentration ≤ 21 pg/mL achieving at least EASI 75” value [1, 8] was 64.3% (9/14), the “% patients with serum IL-19 concentration ≤ 21 pg/mL not achieving at least EASI 75” value [1, 8] was 35.7% (5/14) and the “IL-19 (geometric mean) serum levels” value [1, 8] was 25.1 pg/mL. For the same molecule, the “IL-19 (geometric mean) serum levels” value [1, 4] was 30.3 pg/mL, the “IL-19 (geometric mean) serum levels” value ([1]; 4 mg orally once daily, Week 4) was 18.0 pg/mL and the “% of patients” value [1, 9] was 63.0% (17/27). For the same molecule, the “% patients with serum IL-19 concentration ≤ 21 pg/mL achieving at least EASI 75” value [1, 9] was 58.8% (10/17), the “% patients with serum IL-19 concentration ≤ 21 pg/mL not achieving at least EASI 75” value [1, 9] was 41.2% (7/17) and the “IL-19 (geometric mean) serum levels” value [1, 9] was 21.1 pg/mL.
